From PubChem BioAssay
Compounds with a hit are over-represented: about 4.2% of the library has one in this group of screens.
HDAC3 inhib – HDAC3 deacetylase inhibitors, primary screen, biochemical, fluorescence, cell-free homogeneous. recombinant HDAC3, fluorogenic peptide/trypsin coupled. inhibition, % at 8.3 µM. 320,000 tested, 0.15% active. AID 2718, 2010; in the data active = inhibition above about 26%, passing the limit was not always enough
Yeast UUG start – alters start codon recognition fidelity in yeast | S. cerevisiae UUG-firefly luciferase reporter, luminescence/redox ratio | activity score, % at 18.7 µM | hit rate 0.13% among 350,000 | AID 602363;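 active means replicate mean at a twofold rise or more, about +100% in these data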;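 further: firefly luciferase made from a UUG start codon reports start codon fidelity; reporter light over untreated wells divided by growth signal over untreated wells; some hits fall short of that in this replicate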
NALP1 yeast inh – NALP1 inflammasome inhibitors in reconstituted yeast, colorimetric, S. cerevisiae, triplicate retest; S. cerevisiae NALP1/ASC/caspase-1 growth, X-gal OD620, 72 h; 280,000 tested, 0.61% active; inhibition, % at 10 µM; AID 2071, 2009; in the data active = inhibition mostly above about 24%, no sharp cut-off; inactive = mostly below about 32%
MC4R antag cAMP – MC4R antagonists of cAMP signaling, primary screen, cell-based, TR-FRET, antagonist arm of biased-ligand search. Melanocortin receptor 4 (Homo sapiens), P32245. MC4R-expressing cells, MTII-stimulated cAMP, LANCE TR-FRET. inhibition, % at 6.5 µM. 360,000 tested, 0.48% active;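 active = inhibition above its plate's cutoff, the mean of tested wells on that plate plus 3 SD, cut at about 29% in these data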;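 also: 0% = Melanotan II alone and 100% = Melanotan II plus saturating MCL0020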
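Material: U2OS-MC4R stable cell line | Reagent: Melanotan II challenge after compound preincubation | Doses: One concentration, 6.5 µM nominal | Incubation: 30-min compound preincubation, 1-h Melanotan II challenge, 1-h detection, room temperature | Signal: TR-FRET cAMP assay | Replicates: One well per compound, no replicates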
MC4R ag barr – MC4R agonists recruiting beta-arrestin, primary screen, cell-based, luminescence, agonist arm of biased-ligand search; AID 540308, 2011; activation, % at 8.9 µM; U2OS MC4R beta-arrestin complementation; percent of melanotan II response, DMSO zero; 360,000 tested, 0.98% active;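 active = activation above a per-plate cutoff, the mean activation of sample wells on that plate plus 3 SD, cut at about 8% in these data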
ALR inh – human ALR oxidase inhibition via reduced H2O2; purified ALR, DTT oxidation, H2O2 HRP-luminol luminescence; P55789; 290,000 tested, 3.8% active; AID 485317; inhibition, % (no concentration beside the values);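 active means mean and each replicate at 75% or more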;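 further: stock transfer was 7.5 nL into about 7.5 µL; 0% = neutral wells and 100% = wells with inactivated enzyme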
MC4R barr ag – MC4R beta-arrestin agonists, retest, confirmation, cell-based, luminescence, U2OS; U2OS MC4R beta-arrestin recruitment; scaled DMSO 0%, Melanotan II 100%; 2,400 tested, 31% active; activation, % at 8.9 µM; shares compounds with MC4R ag barr;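 active = mean activation across replicates above the hit cutoff set in the earlier primary screen, cut at about 8% in these data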
MOR-DOR barr ag – agonists of MOR-DOR heterodimerization, counter-screen for MC4R biased agonist project, cell-based, luminescence | shares compounds with MC4R ag barr | U2OS PathHunter beta-arrestin, beta-gal luminescence; percent of deltorphin B response, DMSO zero | activation, % at 9.2 µM | 2,400 tested, 5.8% active;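 active = mean activation across replicates exceeds the hit threshold derived in the earlier primary screen, cut at about 18% in these data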;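 also: 100% = deltorphin B at 0.9 µM final and 0% = DMSO alone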
Active calls of the source: *; . = not tested or not shown.

The chains behind the UniProt entries cited, without tags or fusion partners.
Melanocortin receptor 4 (Homo sapiens), P32245, UniProt P32245, whole entry, looked up: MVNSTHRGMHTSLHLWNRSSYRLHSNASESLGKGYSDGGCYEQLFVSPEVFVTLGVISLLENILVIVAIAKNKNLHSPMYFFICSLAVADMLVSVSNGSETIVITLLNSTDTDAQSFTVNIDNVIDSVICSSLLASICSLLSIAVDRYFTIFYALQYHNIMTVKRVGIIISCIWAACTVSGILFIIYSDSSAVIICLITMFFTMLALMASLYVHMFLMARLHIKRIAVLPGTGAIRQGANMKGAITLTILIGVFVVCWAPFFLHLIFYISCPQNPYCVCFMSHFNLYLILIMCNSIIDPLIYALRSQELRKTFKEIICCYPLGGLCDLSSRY

A first look:
Keys – A = HDAC3 inhib; B = Yeast UUG start; C = NALP1 yeast inh; D = MC4R antag cAMP; E = MC4R ag barr; F = ALR inh; G = MC4R barr ag; H = MOR-DOR barr ag
1) O=C(CSc1ncnc2c1oc1ccccc12)c1cccs1
  A = 2.4	B = .	C = 2.1	D = 20.8	E = 13.3*	F = 0.7	G = 1.3	H = 5.3
2) CCCOc1ccc(C(=O)Nc2nc(C)c(Cc3ccc4c(c3)OCO4)s2)cc1
  A = -2.1	B = -12.7	C = 33.2	D = 3.0	E = 47.2*	F = 6.8	G = 12.7*	H = 4.2

The list itself (from the top)
Keys – A = HDAC3 inhib; B = Yeast UUG start; C = NALP1 yeast inh; D = MC4R antag cAMP; E = MC4R ag barr; F = ALR inh; G = MC4R barr ag; H = MOR-DOR barr ag
1) O=C(CSc1ncnc2c1oc1ccccc12)c1cccs1
  A = 2.4	B = .	C = 2.1	D = 20.8	E = 13.3*	F = 0.7	G = 1.3	H = 5.3
2) CCCOc1ccc(C(=O)Nc2nc(C)c(Cc3ccc4c(c3)OCO4)s2)cc1
  A = -2.1	B = -12.7	C = 33.2	D = 3.0	E = 47.2*	F = 6.8	G = 12.7*	H = 4.2
3) Cc1nc(NC(=O)c2ccc(OCC(C)C)cc2)sc1Cc1ccc2c(c1)OCO2
  A = 4.7	B = .	C = -31.0	D = 9.8	E = -2.6	F = -6.6	G = .	H = .
4) O=C(CCCCn1c(=O)c2ccccc2n(Cc2ccc(F)cc2Cl)c1=O)NCc1ccco1
  A = 11.5	B = -9.7	C = 6.5	D = 5.0	E = 11.1*	F = -3.3	G = 1.1	H = 4.3
5) O=C(CCCCn1c(=O)c2ccccc2n(CC(=O)Nc2ccc(F)cc2)c1=O)NCc1ccco1
  A = 7.8	B = 31.7	C = 10.2	D = 15.9	E = 0.5	F = 0.6	G = .	H = .
6) O=C(COC(=O)c1ccco1)NNC(=O)c1ccc(Cl)cc1
  A = -13.9	B = -6.1	C = .	D = 9.7	E = -3.5	F = -5.3	G = .	H = .
7) CC(C)(C)c1ccc(C(=O)NC(=O)COC(=O)c2ccco2)cc1
  A = .	B = 5.9	C = .	D = -7.1	E = 13.3*	F = .	G = 1.4	H = 7.1
8) CCn1c(CCNC(=O)c2ccc(Cl)c(Cl)c2)nnc1SCCOc1ccc(OC)cc1
  A = 1.1	B = -5.0	C = 13.0	D = 12.4	E = 11.2*	F = -0.3	G = 4.3	H = 5.7
9) CC1CCc2nc(NC(=O)CSc3nc4ccccc4o3)sc2C1 (stereo not drawn)
  A = -4.1	B = -20.7	C = 22.4	D = 2.7	E = 13.9*	F = 98.8*	G = 3.9	H = 9.9
10) COc1ccc(S(=O)(=O)N(C)C[C@H]2OCCCC[C@H](C)Oc3ccc(NS(=O)(=O)c4c(C)noc4C)cc3C(=O)N([C@H](C)CO)C[C@H]2C)cc1
  A = .	B = 11.1	C = .	D = .	E = .	F = .	G = .	H = .

Next structures.
Keys – A = HDAC3 inhib; B = Yeast UUG start; C = NALP1 yeast inh; D = MC4R antag cAMP; E = MC4R ag barr; F = ALR inh; G = MC4R barr ag; H = MOR-DOR barr ag
11) CN(C)S(=O)(=O)Oc1ccsc1C(=O)Nc1ccc(Cl)c(Cl)c1
  A = 4.6	B = -5.9	C = 9.0	D = 17.2	E = -0.4	F = -4.0	G = .	H = .
12) CCOc1ccc(/C=N/OCC(=O)Nc2ccc(OCc3ccccc3)cc2)cc1OC
  A = -3.3	B = .	C = 8.0	D = 11.8	E = 12.5*	F = 8.2	G = 8.2*	H = 2.3
13) COc1ccc(C(=O)Nc2ccc(Nc3ccccc3)cc2)cc1[N+](=O)[O-]
  A = 17.9	B = -7.3	C = -11.7	D = -10.1	E = 0.6	F = 56.8	G = .	H = .
14) COc1ccc(COc2ccsc2C(=O)Nc2ccc(Cl)c(Cl)c2)cc1
  A = -1.4	B = -20.1	C = 3.7	D = -6.4	E = 11.7*	F = -5.4	G = 25.2*	H = 2.9
15) Cc1ccsc1C(=O)Nc1ccc(OCc2ccccc2)cc1
  A = 0.3	B = -6.9	C = 7.9	D = 14.9	E = 9.7*	F = 3.8	G = 0.1	H = 2.7
16) COc1ccc(C(=O)Nc2ccc(OCc3ccccc3)cc2)cc1[N+](=O)[O-]
  A = -0.5	B = -15.7	C = 14.3	D = -0.2	E = 29.7*	F = -8.9	G = 10.2*	H = 7.4
17) CN1C(=O)c2cc(NS(C)(=O)=O)ccc2OC[C@H]2O[C@@H](CC(=O)Nc3cccc(F)c3)CC[C@@H]21
  A = .	B = 2.8	C = .	D = .	E = .	F = .	G = .	H = .
18) CO[C@@H]1CN(C)C(=O)c2ccc(NC(=O)Nc3ccccc3)cc2OC[C@@H](C)N(C(=O)Nc2c(C)noc2C)C[C@H]1C
  A = .	B = -0.1	C = .	D = .	E = .	F = .	G = .	H = .
19) C[C@@H]1CCCCO[C@@H](CN(C)S(=O)(=O)c2ccccc2)[C@@H](C)CN([C@@H](C)CO)C(=O)c2cc(NC(=O)CCC(F)(F)F)ccc2O1
  A = .	B = 14.5	C = .	D = .	E = .	F = .	G = .	H = .
20) C[C@H](CO)N1C[C@H](C)[C@H](CN(C)S(=O)(=O)c2ccc(F)cc2)Oc2ccc(NC(=O)c3ccncc3)cc2CC1=O
  A = .	B = -17.1	C = .	D = .	E = .	F = .	G = .	H = .
